The entries are a selection whose mix differs from that of the whole data set. Activity calls are given as the source filed them.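 The calls were made as follows: active = fitted half-maximal concentration for changing reporter fluorescence at or below a set limit; inactive = the rest.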
Biological target: Citrate synthase, peroxisomal (Saccharomyces cerevisiae (strain ATCC 204508 / S288c)) (UniProt P08679)
Assay: yeast TOR pathway CIT2-GFP reporter potency – flow cytometry, MLPCN hits, dose response (AID 2744)
Conditions: S. cerevisiae CIT2-GFP strain, 3 h, at 33 µM (top of the series)

Protein sequences, listed by entry. Tags and fused reporters are not part of them. Lines headed by an entry give the natural chain unless they say otherwise; changes in a name come on top.
UniProt P08679: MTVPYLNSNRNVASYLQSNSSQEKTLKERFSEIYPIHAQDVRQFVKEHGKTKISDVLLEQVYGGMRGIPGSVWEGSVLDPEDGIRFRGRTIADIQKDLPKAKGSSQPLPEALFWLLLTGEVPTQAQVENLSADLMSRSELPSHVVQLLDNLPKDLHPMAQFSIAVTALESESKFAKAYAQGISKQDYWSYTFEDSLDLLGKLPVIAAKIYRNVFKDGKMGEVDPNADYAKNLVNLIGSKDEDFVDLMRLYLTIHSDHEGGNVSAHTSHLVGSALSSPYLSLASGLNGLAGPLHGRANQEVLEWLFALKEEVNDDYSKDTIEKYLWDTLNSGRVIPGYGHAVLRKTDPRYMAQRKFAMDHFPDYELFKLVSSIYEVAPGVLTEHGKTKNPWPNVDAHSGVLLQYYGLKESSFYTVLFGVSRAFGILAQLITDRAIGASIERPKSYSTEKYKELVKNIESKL

In the case of `C[N+]1=C2C=CC=CC=C2SC12C([N+](=O)[O-])=CC([N+](=O)[O-])=C[C-]2[N+](=O)[O-]` (stereo unspecified), the “GFP fluorescence, higher = induction” value is reported as “inactive”.

Reference: PubChem BioAssay AID2744 (NMMLSC, 2010)
